Measured values published in EP1422230B1 (priority 2002, dated 2004).
Like-named read-outs stand apart in the source and are kept apart here.

Test system: rats
Conditions: intramuscular injection

SMILES | duration of action (0.3 µM/kg in sesame oil) | onset of action (0.3 µM/kg in sesame oil) | duration of action (0.6 µM/kg in sesame oil) | duration of action (different doses (0.6, 6, 60 µM/kg), oil solution)
COC12CCC3(CC1C(C)(O)C(C)(C)C)C1Cc4ccc(OC(=O)CCCCCCCCC(=O)Oc5ccc6c7c5OC5C8(OC)CCC9(CC8C(C)(O)C(C)(C)C)C(C6)N(CC6CC6)CCC759)c5c4C3(CCN1CC1CC1)C2O5 (stereo not shown) | 96 h | 2 h | – | –
COC12CCC3(CC1C(C)(O)C(C)(C)C)C1Cc4ccc(OC(=O)CCCCCC(=O)Oc5ccc6c7c5OC5C8(OC)CCC9(CC8C(C)(O)C(C)(C)C)C(C6)N(CC6CC6)CCC759)c5c4C3(CCN1CC1CC1)C2O5 (stereo not shown) | 72 h | 2 h | – | –
CCCCCCCCCCCCCCCC(=O)Oc1ccc2c3c1OC1C4(OC)CCC5(CC4C(C)(O)C(C)(C)C)C(C2)N(CC2CC2)CCC315 (stereo not shown) | – | – | 96 h | –
CCC(=O)Oc1ccc2c3c1OC1C4(OC)CCC5(CC4C(C)(O)C(C)(C)C)C(C2)N(CC2CC2)CCC315 (stereo not shown) | – | – | – | 48 to 60 h
CCCCCCCCCC(=O)Oc1ccc2c3c1OC1C4(OC)CCC5(CC4C(C)(O)C(C)(C)C)C(C2)N(CC2CC2)CCC315 (stereo not shown) | – | – | 96 h | –
